Results on 1 molecule are retold here after publication PMC7205193, “Crystal structure of the mitochondrial protein mitoNEET bound to a benze-sulfonide ligand” (Communications chemistry, 2019).

As a reminder, the IC50 is the concentration that inhibits the measured activity by half. Low readings indicate inhibition by little substance, high ones a need for much substance.

The target in this assay is T1, mitoNEET (Homo sapiens, UniProt Q9NZ45).
T1 sequence (Q9NZ45 32-108 limits assumed): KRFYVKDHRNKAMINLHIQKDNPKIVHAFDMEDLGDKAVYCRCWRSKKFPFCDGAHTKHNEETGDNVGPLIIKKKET
In words: [3H]rosiglitazone displacement binding assay (SPA). The following applies: 20 nM [3H]rosiglitazone, 60 min, room temperature, 50 mM Tris pH 8; ± std error. As to the method:
Recombinant mitoNEET was attached to nickel scintillation proximity assay (SPA) beads, and incubated with 20 nM [^3H] rosiglitazone (PerkinElmer) for 60 min at room temperature. The binding buffer was 50 mM Tris pH 8. White clear bottom 96-well plates were used for the assay, and the counts per minute analyzed in a MicroBeta Counter (Perkin Elmer). Data were analyzed as fraction of the total binding using a one-site model with GrapPad Prism 6 statistical software. All binding curves had R^2 > 0.9.

In the case of `NS(=O)(=O)c1cc(C(=O)O)c(NC2CCCCC2)cc1Cl` [2k], the IC50 worked out at 31.2 ± 1.02 µM.
